Reference: patent US6476187B1, “Methods and reagents for discovering and using mammalian melanocortin receptor agonists and antagonists to modulate feeding behavior in animals” (Oregon Health & Sciences University, priority 1992, dated 2002)

Sequences of proteins named here, by UniProt entry; tags and fusion partners are left off. A change or cut given only in a name is not applied to a line headed by its entry.
UniProt P32244: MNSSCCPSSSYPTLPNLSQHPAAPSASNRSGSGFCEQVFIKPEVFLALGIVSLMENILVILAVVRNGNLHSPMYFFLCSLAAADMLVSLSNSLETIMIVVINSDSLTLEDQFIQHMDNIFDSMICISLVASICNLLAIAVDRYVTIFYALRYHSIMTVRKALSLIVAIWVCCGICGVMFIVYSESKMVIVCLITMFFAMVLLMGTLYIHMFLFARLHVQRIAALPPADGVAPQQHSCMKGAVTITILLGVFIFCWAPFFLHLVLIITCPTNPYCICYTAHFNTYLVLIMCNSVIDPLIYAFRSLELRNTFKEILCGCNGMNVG
UniProt P32245, whole entry: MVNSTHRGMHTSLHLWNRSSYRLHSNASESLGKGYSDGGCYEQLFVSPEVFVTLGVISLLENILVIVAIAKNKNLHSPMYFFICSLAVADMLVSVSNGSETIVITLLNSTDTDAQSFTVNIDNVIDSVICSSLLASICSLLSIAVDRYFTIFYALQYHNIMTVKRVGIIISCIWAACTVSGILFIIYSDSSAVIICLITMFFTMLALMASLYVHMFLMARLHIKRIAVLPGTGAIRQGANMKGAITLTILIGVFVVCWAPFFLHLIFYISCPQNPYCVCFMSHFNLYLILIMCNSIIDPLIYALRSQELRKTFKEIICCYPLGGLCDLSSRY
UniProt P41149: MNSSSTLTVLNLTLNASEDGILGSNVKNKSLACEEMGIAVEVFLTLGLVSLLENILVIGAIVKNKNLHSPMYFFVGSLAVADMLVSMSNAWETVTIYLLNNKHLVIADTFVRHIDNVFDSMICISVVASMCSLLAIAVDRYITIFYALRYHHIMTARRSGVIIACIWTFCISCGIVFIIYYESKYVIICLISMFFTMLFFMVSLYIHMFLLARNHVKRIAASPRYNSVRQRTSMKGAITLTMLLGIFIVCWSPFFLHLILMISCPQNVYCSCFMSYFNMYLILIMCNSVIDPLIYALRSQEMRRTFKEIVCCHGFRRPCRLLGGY

Columns and labels:
Format in all cases: cell-based
rat MC3-R = target: T1, rat MC3-R (Rattus norvegicus, UniProt P32244); experiment: intracellular cAMP production in 293 cells expressing MC3-R; conditions: 1 h at 37° C.
T1 construct: The entire coding region of the MC-3 receptor cDNA insert; expressed in transfected cells; host or cells: human 293 cells, pcDNA/neo I, G418-selected
Experimental: cAMP production assays as described above were also used to analyze expression of MC3-R in cells transfected with the expression vectors described herein as follows. Cells (˜5×10^6) were plated in 6-well dishes, washed once with DMEM containing 1% bovine serum albumin (BSA) and 0.5 mM IBMX (a phosphodiesterase inhibitor), then incubated for 1 h at 37° C. with varying concentrations of the melanotropic peptides αMSH, γ3MSH, γMSH, the MSH peptide analogues Nle^4-D-Phe^7-αMSH (NDP-MSH), ACTH4-10 and ACTH1-39. Following hormone treatment, the cells were washed twice with phosphate buffered saline and intracellular cAMP extracted by lysing the cells with 1 mL of 60% ethanol. Intracellular cAMP concentrations were determined using an assay which measures the ability of cAMP to displace [8-^3H] cAMP from a high affinity cAMP binding protein (see Gilman, 1979, Proc. Natl. Acad. Sci. USA 67: 305-312).
The abscissa indicates the concentration of each hormone and the ordinate indicates the percentage of basal intracellular cAMP concentration achieved by each treatment. […] None of the peptides tested induced any change in intracellular cAMP in cells containing the vector alone. Cells expressing rat MC3-R responded strongly to every melanotropic peptide containing the MSH code sequence His-Phe-Arg-Trp, with up to a 60-fold elevation of intracellular cAMP levels.

[1] = target: T2, human melanocortin-4 receptor (Homo sapiens, UniProt P32245); experiment: adenylate cyclase activity in 293 cells expressing MC-4 receptor
T2 construct: The MC-4 receptor was cloned in a 1.9 kb HindIII genomic DNA fragment; expressed in transfected cells; host or cells: human 293 cells, pcDNAI/Neo, G418-selected

[2] = target: T3, mouse MC-5 melanocortin receptor (Mus musculus, UniProt P41149); experiment: adenylate cyclase / cAMP-dependent β-galactosidase assay in 293 cells expressing MC-5 receptor; conditions: MC-5 receptor agonists
T3 construct: expressed in transfected cells; host or cells: human 293 cells, pcDNA/neo, G418-selected
Experimental: A 1.6 kb ApaI-HindIII fragment comprising the entire coding sequence of the mouse MC-5 melanocortin receptor disclosed in Example 2G above was cloned into the pcDNA/neo expression vector (Invitrogen) after PCR amplification of the lambda phage clone. This plasmid was stably introduced into human 293 cells by calcium phosphate co-precipitation using standard techniques, and plasmid-containing cells selected in G418 containing media. Specificity of receptor-hormone binding was assayed using adenylate cylcase activity as described above.
α-MSH>PMSH>>γ-MSH The results of adenylate cyclase activity assays (AC) and cAMP-dependent β-galactosidase (β-gal) assay are shown in FIG. 13.

| Substance | EC50 (rat MC3-R) | EC50 [1] | EC50 [2] |
| --- | --- | --- | --- |
| ACTH4-10 | 100 nM | > 100 nM |  |
| desacetyl-αMSH | 8 nM |  |  |
| α-melanocyte stimulating hormone [α-MSH] |  |  | 1.7 nM |
| γ2-MSH | 3 nM |  |  |
